Measurements from US11147884B2, “Inhibitors of NHE-mediated antiport” (Ardelyx, Inc., priority 2017, dated 2021).

Target: T1, NHE3 (Homo sapiens, UniProt P48764)
T1 construct: the increase in NHE3 expression after differentiation; endogenous in cells; host or cells: enterocytes (differentiated human ileum organoid monolayer cultures)
T1 sequence (P48764 26-834): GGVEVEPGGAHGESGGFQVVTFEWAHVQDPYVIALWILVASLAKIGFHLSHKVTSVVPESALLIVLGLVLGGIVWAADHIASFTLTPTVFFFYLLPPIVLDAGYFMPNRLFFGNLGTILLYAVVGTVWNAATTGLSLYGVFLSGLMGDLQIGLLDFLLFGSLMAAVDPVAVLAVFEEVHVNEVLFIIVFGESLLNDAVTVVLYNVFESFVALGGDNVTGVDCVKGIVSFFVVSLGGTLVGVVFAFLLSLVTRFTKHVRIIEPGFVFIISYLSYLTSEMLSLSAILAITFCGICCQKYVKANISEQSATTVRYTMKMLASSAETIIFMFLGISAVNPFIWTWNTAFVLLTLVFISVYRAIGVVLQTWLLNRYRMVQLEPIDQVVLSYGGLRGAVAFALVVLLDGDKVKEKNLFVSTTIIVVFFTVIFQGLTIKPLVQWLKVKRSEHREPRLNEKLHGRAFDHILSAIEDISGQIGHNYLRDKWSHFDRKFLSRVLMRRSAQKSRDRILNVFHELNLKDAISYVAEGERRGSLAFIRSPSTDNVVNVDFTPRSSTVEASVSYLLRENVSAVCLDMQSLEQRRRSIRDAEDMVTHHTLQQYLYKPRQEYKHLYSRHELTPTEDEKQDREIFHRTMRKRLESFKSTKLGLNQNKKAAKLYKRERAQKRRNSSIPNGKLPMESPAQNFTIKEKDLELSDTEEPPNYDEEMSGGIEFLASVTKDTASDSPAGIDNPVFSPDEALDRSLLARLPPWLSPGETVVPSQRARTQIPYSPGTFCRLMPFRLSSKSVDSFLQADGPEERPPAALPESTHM
Assay: NHE3 activity in enterocytes by intracellular pH recovery following acid loading
Type: cell-based

## FCCP
  inhibition of NHE3 activity in enterocytes: neither nigericin, BAM15 nor FCCP inhibited NHE3 activity
